Reference: ChEMBL document CHEMBL5113391, “Halogen substituents enhance oxime nucleophilicity for reactivation of cholinesterases inhibited by nerve agents” (2022)

Key:
Cholinesterase = Cholinesterase (Homo sapiens, UniProt P06276); assay: Reactivation of OP compound induced inhibition of BChE in human plasma using ATCh as substrate by Ellman's method
Acetylcholinesterase = Acetylcholinesterase (Homo sapiens, UniProt P22303); assay: Reactivation of OP compound induced inhibition of recombinant human AChE using ATCh as substrate by Ellman's method
[1] = Stability of compound in PBS at 1 mg/ml for 8 hrs by UHPLC analysis; conditions: buffer
[2] = Stability of compound in unionized water at 1 mg/ml for 8 hrs by UHPLC analysis; conditions: buffer

Row | SMILES | Ki (Acetylcholinesterase) [µM] | also measured
1 | NC(=O)c1cc[n+](CCCC[n+]2ccc(/C=N/O)c(F)c2)cc1 | 44 | Ki (Cholinesterase): 25 µM
2 | NC(=O)c1cc[n+](CCCC[n+]2cc(F)c(/C=N/O)c(F)c2)cc1 | 63 | 
3 | NC(=O)c1cc[n+](CCC[n+]2cc(Cl)c(/C=N/O)c(Cl)c2)cc1.[Br-].[Br-] |  | Stability [1]: Unstable; Stability [2]: Stable
4 | NC(=O)c1cc[n+](CCC[n+]2cc(F)c(/C=N/O)c(F)c2)cc1 | 28 | 
5 | NC(=O)c1cc[n+](CCC[n+]2ccc(/C=N/O)c(F)c2)cc1 | 35 | 
6 | NC(=O)c1cc[n+](C/C=C/C[n+]2ccc(/C=N/O)c(F)c2)cc1 | 36 | 
7 | NC(=O)c1cc[n+](C/C=C/C[n+]2cc(F)c(/C=N/O)c(F)c2)cc1 | 68 | 
